Reference: ChEMBL document CHEMBL2086314, “Synthesis and anticonvulsant activity of new N-Mannich bases derived from 3-(2-fluorophenyl)- and 3-(2-bromophenyl)-pyrrolidine-2,5-diones. Part II” (Bioorg Med Chem, 2012)

Species: Mus musculus
Test: Protective index, ratio of TD50 for CF-1 albino mouse to ED50 for CF-1 albino mouse assessed as protection from 6 Hz psychomotor seizure
Type: functional
Procedure, shortened: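 6-Hz test (32 mA, 0.2 ms pulses at 6 Hz for 3 s, corneal) in male CF-1 mice dosed ip. Quantified at the time of peak effect in groups of eight across at least three doses giving 10–90% effect. ED50 and TD50 (minimal neurological toxicity) obtained by regression; PI = TD50/ED50.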

**Q.** Which “Ratio TD50/ED50” value does the source give for `CC[C@@H](C(N)=O)N1CCCC1=O` [LEVETIRACETAM] here?
**A.** The value was greater than 26.
